## Yeast mating assay B: variants of the scFv Ab-14

Values reported by Li et al. 2023, doi:10.1038/s41467-023-39022-2 (FLAb copy).

Antigen: PDVDLGDISGINAS, a 14-residue peptide of the SARS-CoV-2 spike HR2 region.

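This is the validation round: designs drawn from the data on random variants, tested in the same kind of assay. Group labels follow the data file (Ctrl: baseline library sampled from a position-specific scoring matrix, with some repeated check sequences; Rand: our label for a block that the file lists under HC and that is probably the random mutants of the ten best first-round binders; En: ensemble of fine-tuned language models; HC: hill climbing; Gen: genetic algorithm; Gibbs: Gibbs sampling; a sequence that several methods proposed may carry one label only). The assay is AlphaSeq: two haploid yeast populations carry antibody and antigen on their surface. Mating (16 h, 30 °C) was followed by selection of diploids and sequencing of their barcodes. The ratio of observed to expected reads was calibrated, replicate by replicate, on BCL2-family standards whose Kd was known from biolayer interferometry. Each pool was mated in six replicate cultures.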

Parent scFv Ab-14: VH joined to VL by a (GGGGS)3 linker. Changes lie in the heavy chain CDRs alone.
VH: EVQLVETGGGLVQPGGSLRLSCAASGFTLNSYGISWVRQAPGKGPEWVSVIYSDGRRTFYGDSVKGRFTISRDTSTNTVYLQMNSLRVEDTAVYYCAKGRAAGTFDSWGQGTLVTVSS
VL: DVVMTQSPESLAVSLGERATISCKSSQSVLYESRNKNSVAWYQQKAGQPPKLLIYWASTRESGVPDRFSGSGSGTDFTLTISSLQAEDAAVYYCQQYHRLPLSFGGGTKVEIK

The parent's heavy chain CDRs are GFTLNSYGIS, VIYSDGRRTFYGDSVK, GRAAGTFDS; each variant's own CDRs replace them letter for letter.
Variants here have more than six changes.
Each Kd is an estimate from the mating assay, the geometric mean of the replicates in which the pair was seen; lower is stronger.
A pair that was not seen in any replicate is written "nd"; this usually means weak binding, but a binder can also be missed.
Nonspecific signal, from three strains lacking the peptide, appeared in 1% of pairings of all heavy chain designs, centred on 120 nM (5% of these signals below 7.0 nM); values are not corrected for it.
The range of this assay differs from that of the first round, and the authors advise against merging the two.
The authors averaged sequences with at least three values out of six and counted those with two or fewer as poor binders.

CDR-H1,CDR-H2,CDR-H3,group,Kd,replicates with signal
GFEINDYGIS,VIYSDGHRTFYGDSVR,GKAADTFLS,Ctrl,20 nM,6/6
GFDLNEYGIS,VIYADGRRTAYVDSVK,GEQAGTFDV,En_HC,370 pM,6/6
GFSLDEYGIS,VIYADGRRTMYCDNFK,GEHGCTFKM,En_Gibbs,11 nM,6/6
GFDLDEYGIS,VIYADGMRTAYADNVK,GQVAGTFDV,En_Gen,440 pM,6/6
GFDLNEYGIS,VIYADGMRKFYADSVK,GNVAGTFDV,En_Gen,380 pM,6/6
GFDIEKYGIS,VIYADGQRVSYDSSVK,GENAGNFMD,En_Gibbs,nd,0/6
GFDLNEYGIS,VIYADGMRTAYADSVK,GEAAGTFDQ,En_HC,140 pM,6/6
GYDLNEYGIS,VIYADGQRTSYVQSVK,GAGDITGLV,En_Gibbs,7.2 µM,2/6
GFSLGEYGIS,VIYADGVRQSYADKVK,GANGAFSLV,En_Gibbs,nd,0/6
GFNLNEYGIS,VIYADGMRTFYADSVK,GGAAGTFDV,En_HC,260 pM,6/6
GFSLDEYGIS,VIYADGVRQAYQDSVK,GQWHGTMDY,En_Gibbs,nd,0/6
GFDLDEYGIS,VIYADGRRTFYADSVK,GEHAGTFDT,En_HC,680 pM,6/6
GFDLDEYGIS,VIYADGMRTSYADSVK,GNVAGTFDV,En_Gen,100 pM,6/6
GFDLNEYGIS,VIYADGRRTFYADSVK,GNIAGTFIS,En_HC,490 pM,6/6
GFDLSEYGIS,VIYADGMRTAYADSVK,GNNAGTFDV,En_Gen,1.2 nM,6/6
GFDLNEYGIS,VIYADGMRQYYADSVK,GENAGTFDV,En_Gen,120 pM,6/6
GYSLDEYGIS,VIYADGVRQFYADDVK,GGIAGQFNY,En_Gibbs,2.2 nM,6/6
GFDLMEYGIS,VIYADGKRKAYENKVK,GGSVRSVVI,En_Gibbs,1.5 nM,6/6
GFDLNEYGIS,VIYADGMRTFYADSVK,GQLAGTFDQ,En_HC,790 pM,6/6
GFNLSEYGIS,VIYADGMRSNYANSVK,GHGGNFFID,En_Gibbs,4.4 nM,6/6
GFEIQEYGIS,VIYADGRRQAYAESVK,GTLGGTLST,En_Gibbs,9.9 nM,6/6
GFDLEEYGIS,VIYADGKRTFYSDSVK,GEAAGTFDV,En_HC,730 pM,6/6
GFDLNEYGIS,VIYADGRRTFYTDNVK,GQNAGTFDS,En_HC,1.0 nM,6/6
GSNLDEYGIS,VIYADGFRSHYAEKVK,GQQGGFFIK,En_Gibbs,nd,0/6
GFNLNEYGIS,VIYADGRRTFYADSVK,GQVAGTFDL,En_HC,2.2 nM,6/6
GFDLNEYGIS,VIYADGQRKAYADSVK,GNVAGTFDI,En_Gen,380 pM,6/6
GFSLNEYGIS,VIYADGKSRHYADSVK,GLISGFFDI,En_Gibbs,nd,0/6
GFDLNEYGIS,VIYADGRRTFYADSVK,GHVAGTFIQ,En_HC,19 nM,6/6
GFDLNEYGIS,VIYADGARSFYTDKVK,GVTVGDNGT,En_Gibbs,1.4 µM,1/6
GFDLNEYGIS,VIYADGRRTFYVDSVK,GENAGIFNV,En_HC,9.2 nM,2/6
GFDLNEYGIS,VIYADGQRTAYADDVK,GNNAGTFDV,En_Gen,190 pM,6/6
GFDLNEYGIS,VIYADGRRTFYADDVK,GEVAGTFDV,En_HC,220 pM,6/6
GFDIQDYGIS,VIYADGLRTSVSTNFK,GIIAGTFTS,En_Gibbs,4.2 nM,6/6
GFDLNEYGIS,VIYADGRRTFYTDSVK,GNLAGTFDQ,En_HC,220 pM,6/6
GFDLEDYGIS,VIYADGQRTAYADSVK,GNVAGTFDL,En_Gen,960 pM,6/6
GFDLNEYGIS,VIYADGKRTFYVDSVK,GQVAGTFNV,En_HC,300 pM,6/6
GDSLDEMGIS,VIYADGQRSYYADSVK,GEHDGLFFQ,En_Gibbs,360 nM,1/6
GFDLNEYGIS,VIYADGRRTAYSDSVK,GENAGTFDI,En_Gen,nd,0/6
GFSLSEYGIS,VIYADGERANYVSNFK,GVLAGTFVL,En_Gibbs,nd,0/6
GFDLNEYGIS,VIYADGVRTFYADSVK,GSEAGTFDM,En_HC,1.1 nM,6/6
GFDLDEYGIS,VIYADGQRTYYADSVK,GENAGTFDL,En_Gen,1.0 nM,6/6
KFDLEAYGIS,VIYADGVRAAYVDKVK,GQTGGMFDM,En_Gibbs,380 nM,2/6
GFDLNEYGIS,VIYADGMRTAYADSVK,GTNAGTFDT,En_Gen,490 pM,6/6
GKNLEEYGIS,VIYADGMRTAYKESVK,GQVAGIGKF,En_Gibbs,nd,0/6
GFDLNEYGIS,VIYADGLRTSYTDSVK,GQLAGTFDQ,En_HC,320 pM,6/6
GFDLNSYGQS,VIYSWGRRTFYCDSVK,QRAADWFNS,Rand,nd,0/6
GFDLDEYGIS,VIYADGRRTFYQDSVK,GQNAGTFDT,En_HC,5.1 nM,5/6
GHTLLQYGIS,VIYSSGRFTFYSDSVK,GRAAGFFDS,Rand,nd,0/6
GENLEEYGIS,VIYADGIREQYVDDVK,GEQGGYFVT,En_Gibbs,nd,0/6
GFDLDEYGIS,VIYADGMRTVYADSVK,GENAGTFDQ,En_Gen,160 pM,6/6
GFDLDEYGIS,VIYADGMRTFYQDSVK,GNVAGTFDV,En_HC,190 pM,6/6
GFVLSEYGIS,VIYADGQRTFYAPNVK,GQLNVVLNG,En_Gibbs,1.1 nM,6/6
GFSLDEYGIS,VIYADGRRTFYADSVK,GNVAGTFDA,En_HC,240 pM,6/6
GFDLNEYGIS,VIYADGMRTAYSDNVK,GNNAGTFDV,En_Gen,290 pM,6/6
GFDLNEYGIS,VIYADGVRTFYSDSVK,GTNGGTFDI,En_HC,410 pM,6/6
GFDIEEYGIS,VIYADGYRTAYKQKVK,GQIAGGQFD,En_Gibbs,nd,0/6
GFSLDEYGIS,VIYADGMRARYSDQVK,GVKVGNVIM,En_Gibbs,160 nM,1/6
GFGLDEYGIS,VIYADGQRKSYTDDVK,GSYTNKKGI,En_Gibbs,nd,0/6
GFDLNEYGIS,VIYADGMRTAYADSVK,GTNAGTFDL,En_Gen,660 pM,6/6
GFDLNEYGIS,VIYADGMRTFYADSVK,GEAGGTFDS,En_HC,1.2 nM,6/6
GFDLNEYGIS,VIYADGKRTVYADSVK,GNNAGTFDV,En_Gen,850 pM,6/6
GFDIQEYGIS,VIYADGERRAYADKVK,GTHGGTRDI,En_Gibbs,nd,0/6
GQGLEDYGIS,VIYADGMRTYYAPNVK,GEVNGVMDI,En_Gibbs,nd,0/6
GFDLNEYGIS,VIYADGQRTAYADDVK,GNQAGTFDL,En_Gen,12 nM,6/6

Extract of 3 entries:

CDR-H1,CDR-H2,CDR-H3,group,Kd,replicates with signal
GFDLNEYGIS,VIYADGMRKFYADSVK,GNVAGTFDV,En_Gen,380 pM,6/6
GFNLNEYGIS,VIYADGRRTFYADSVK,GQVAGTFDL,En_HC,2.2 nM,6/6
GFDLNEYGIS,VIYADGVRTFYADSVK,GSEAGTFDM,En_HC,1.1 nM,6/6